In patent US20130216530A1, “Methods for optimizing biological response modifier therapy using therapeutic drug monitoring of immunosuppressants” (Exagen Diagnostics, Inc., priority 2012, published 2013):

Test: RBC MTXPG3 levels in RA patients measured by liquid chromatography
Type: in vivo, human
Conditions: all 61 RA patients on weekly MTX, red blood cells
Procedure: Adult RA patients receiving weekly MTX with infliximab for more than three months were enrolled in a cross sectional study. Blood was collected at trough before the infusion of infliximab. Red blood cell (RBC) MTXPGs were measured using liquid chromatography while circulating levels of infliximab were measured using a cell based assay. ATIs were measured using enzyme immunoassays. Statistical analysis consisted of regression analyses and Wilcoxon tests.
The study was cross sectional study in adult RA patients at three study sites (Brigham and Women's, Boston, Mass.; The Center for Rheumatology, Albany, N.Y.; and Altoona Center for Clinical Research, Altoona Pa.). […] RBC MTXPG3 were measured using a liquid chromatography developed and validated in our laboratory^9. Quantification limit was 5 nmol/L RBCs. Circulating levels of infliximab in serum were measured by Biomonitor (Copenhagen, DK) using a cell based assay consisting of erythroleukemic K562 cells transfected with a NFKB regulated firefly luciferase reporter-gene construct^10. Antibodies to infliximab (ATIs) were measured using a proprietary enzyme immunoassay technique (Biomonitor, Copenhagen, Denmark). The cutoff for positive ATI was 0.9 U/L. Anti-citrullinated peptide auto-antibodies levels (Anti-MCV) were measured using ELISA (Orgentec Diagnostika, Mainz, Germany). […]

median RBC MTXPG3 levels: 28 nmol/L
Substance: methotrexate polyglutamate [MTXPG]
